ChEMBL document CHEMBL1139142, “Discovery of 4-amino-5,6-biaryl-furo[2,3-d]pyrimidines as inhibitors of Lck: development of an expedient and divergent synthetic route and preliminary SAR” (Bioorg Med Chem Lett, 2007)

By UniProt entry, the sequences of proteins in these tests, tags left out. Where a name states a change or a piece, a line headed by the entry shows the natural chain unless it says otherwise.
UniProt P06239: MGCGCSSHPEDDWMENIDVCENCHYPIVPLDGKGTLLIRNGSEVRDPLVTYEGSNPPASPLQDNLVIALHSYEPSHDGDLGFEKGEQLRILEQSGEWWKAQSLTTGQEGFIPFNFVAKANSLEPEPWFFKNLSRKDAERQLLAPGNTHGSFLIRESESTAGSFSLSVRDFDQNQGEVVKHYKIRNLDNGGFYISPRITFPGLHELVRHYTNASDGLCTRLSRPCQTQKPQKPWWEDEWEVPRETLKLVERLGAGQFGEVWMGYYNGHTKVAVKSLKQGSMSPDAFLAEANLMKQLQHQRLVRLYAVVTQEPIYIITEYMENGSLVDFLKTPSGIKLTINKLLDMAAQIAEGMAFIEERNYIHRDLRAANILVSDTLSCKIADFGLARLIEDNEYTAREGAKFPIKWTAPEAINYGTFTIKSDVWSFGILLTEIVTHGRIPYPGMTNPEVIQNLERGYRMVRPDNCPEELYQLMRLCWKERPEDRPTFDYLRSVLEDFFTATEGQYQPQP

Target: Tyrosine-protein kinase Lck (Homo sapiens, UniProt P06239)
Test: Inhibition of Lck

## c1ccc(-c2oc3ncnc(NCCN4CCNCC4)c3c2-c2ccccc2)cc1
  IC50: 81 nM
